Legend:
[1] = target: rat luteinizing hormone receptor (rat) (UniProt P16235); assay: cell-based or functional assay
[2] = target: bovine luteinizing hormone receptor (bovine) (UniProt Q28005); assay: cell-based or functional assay

PCRE controlled luciferase expression, 6 h post-induction with 500 ng/ml bLH, HEK293T transiently expressing rLHR [1]: 9.9 fold | PCRE controlled luciferase expression, stable rLHR clone 6 (CK04), 500 ng/ml bLH [1]: 17 fold | PCRE dependent SEAP expression of encapsulated CK04 cells, 60 hours post-induction, LH-surge dose of bLH compared to 100 ng/ml [1]: 2.3 fold | PCRE dependent SEAP production, rLHR-expressing cells relative to bLHR-expressing cells, 500 ng/mL bLH [1]: 3 fold | cellulase activity in supernatant, CK04 cells transfected with pCK71 (PCRE-cellulase), 48 h post-induction [1]: 8.4 fold | increase in intracellular cAMP-level, 1 hour post-induction with 500 ng/ml bLH, HEK293T transiently expressing rLHR [1]: 29 fold | rate of disrupted CS/pDADMAC capsules holding CK04 cells with pCK71, 24 hours post-induction with 500 ng/ml bLH [1]: 98% | rate of spontaneously collapsed capsules holding CK04 cells with pCK71, without bLH (baseline) [1]: 6% | increase in intracellular cAMP-level, 1 hour post-induction with 500 ng/ml bLH, HEK293T transiently expressing bLHR [2]: 12 fold
Substance: bovine luteinizing hormone (from UniProt P01217 25-120; P04651 21-141) (ligand)
